Values of other authors as cited in patent US10889565B2, “4-hydroxy-3-sulfonylpyridin-2(1H)-ones as APJ receptor agonists” (BRISTOL-MYERS SQUIBB COMPANY, priority 2016, dated 2021).

Conditions: Japp et al. 2010; cited from earlier work

For Apelin, the “half life in circulation” value is listed as “less than 5 minutes”.
